From publication PMC12597268

Biological target: WT β-cHMM2.0 (human β-cardiac heavy meromyosin with the S2Tag inserted in the S2 domain) (human | chicken)
Test: three-bead optical trap; WT-cHMM2.0 held on nitrocellulose-coated pedestal beads through mAb 10F12.3; actin filament dumbbell between two optically trapped beads; 1 uM MgATP; trapping buffer 25 mM KCl, 60 mM MOPS pH 7.0, 1 mM DTT, 1 mM MgCl2, 1 mM EGTA; single-molecule interactions found by a decrease in bead covariance

For “rabbit skeletal muscle actin filaments (from UniProt P68135 1-377) (natural protein)”, the k detach (actin detachment rate at 1 uM ATP) was 5.9 s⁻¹.
